Several values for one entry are separate records, joined by “and”; a condition that tells them apart may be missing. Identical values can stand only once.
Assays:
[1] = system: mPFC layer V neurons, M1 receptor KO mice
[2] = target: rM1 receptor (Rattus norvegicus, UniProt P08482)
[3] = target: T1, rat M1 receptor (Rattus norvegicus, UniProt P08482); details: 1 μM
[4] = target: T1, rat M1 receptor; test: cell-based
[5] = system: rat M4; details: 3 μM BQCA, rM4-Gqi5
[6] = system: human M3; details: 3 μM BQCA, hM3
[7] = system: human M5; details: 3 μM BQCA, hM5
[8] = system: human M2; details: 3 μM BQCA, hM2-Gqi5

Sequences of proteins named here, by UniProt entry; tags and fusion partners are left off. A change or cut given only in a name is not applied to a line headed by its entry.
UniProt P08482: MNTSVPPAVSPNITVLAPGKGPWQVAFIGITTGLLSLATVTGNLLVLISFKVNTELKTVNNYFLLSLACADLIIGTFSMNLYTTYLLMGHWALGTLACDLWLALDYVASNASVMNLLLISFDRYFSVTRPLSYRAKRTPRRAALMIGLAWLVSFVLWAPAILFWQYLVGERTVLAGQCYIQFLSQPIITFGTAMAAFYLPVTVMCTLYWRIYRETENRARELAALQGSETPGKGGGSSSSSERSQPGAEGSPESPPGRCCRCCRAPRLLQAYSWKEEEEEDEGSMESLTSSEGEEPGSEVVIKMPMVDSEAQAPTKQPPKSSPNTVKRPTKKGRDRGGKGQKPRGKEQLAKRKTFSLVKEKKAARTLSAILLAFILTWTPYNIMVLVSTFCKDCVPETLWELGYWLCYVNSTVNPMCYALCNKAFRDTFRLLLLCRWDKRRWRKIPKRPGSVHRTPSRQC

Compound	sEPSC amplitude [1]	sEPSC frequency [1]	Displacement of [3H]-NMS binding [2]	Effect on the response to an EC20 concentration of ACh ([3]; compared to vehicle)	Effect on calcium when added alone ([3]; no ACh)	EC50 [4] [nM]	Effect on the ACh concentration response curve [5]	Effect on the ACh concentration response curve [6]	Effect on the ACh concentration response curve [7]	Effect on the ACh concentration response curve [8]
C[N+](C)(C)CCOC(N)=O [CCh, carbachol]	79.4 ± 14.9% and 80.7 ± 5.2%	186.3 ± 187.4% and 271.7 ± 310.4%	–	–	–	–	–	–	–	–
COc1ccc(Cn2cc(C(=O)[O-])c(=O)c3ccccc32)cc1.[Na+] [BQCA, Sodium 1-(4-methoxybenzyl)-4-oxo-1,4-dihydroquinoline-3-carboxylate]	–	–	no displacement	greatly enhances	no effect	267 ± 31	no effect	no effect	no effect	no effect

From paper PMC2811323 (The Journal of neuroscience : the official journal of the …, 2009)
